A selection: hits, their analogues and other compounds. The true share with any hit is near 2.8%.
MITF act: increases MITF-driven TRPM1 promoter luciferase signal; actives 0.75% (n = 300,000); SK-MEL-5 TRPM1-promoter luciferase, 24 h; % of positive control, neutral wells = 0; activation, % at 12.5 µM;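 active means mean activation of at least 80% with every replicate also reaching 80%; inconclusive means mean reaches 80% but some replicate falls short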;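 further: 0% = neutral control wells and 100% = parthenolide positive control wells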
esBAF inh: inhibitors of esBAF chromatin remodeling in mouse ES cells; Bmi1-luciferase knock-in reporter, 24 h; 100% = twice the neutral-well signal; reporter increase, % at 12.5 µM; actives 2% (n = 350,000); AID 602393; in the data active means activation above about 40%; inconclusive means no clear call, values can overlap the other calls;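 further: 0% = median of the plate's neutral control wells and 100% = double that signal; a rise in the Bmi1 reporter signal indicates esBAF inhibition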
Wnt bcat act: activates Wnt/beta-catenin signaling in a reporter cell assay; activator, plate reader; activation, % at 9.35 µM; actives 1.2% (n = 300,000); AID 743398; in the data active means activation above about 30%, passing the limit was not always enough; inconclusive means no clear call, values can overlap the other calls;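 further: 0% = neutral control wells and 100% = positive control wells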
UUG fidelity: modulators of yeast start codon fidelity, primary screen, whole organism, S. cerevisiae, single point, plate reader | AID 602363, 2012 | actives 0.13% (n = 350,000) | activity score, % at 18.7 µM | S. cerevisiae UUG-firefly luciferase reporter, luminescence/redox ratio;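 active means replicate mean at a twofold rise or more, about +100% in these data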;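 further: firefly luciferase made from a UUG start codon reports start codon fidelity; reporter light over untreated wells divided by growth signal over untreated wells; some hits fall short of that in this replicate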
miR-122 sensor: inhibitors of miR-122 in Huh7 cells; Huh7 miR-122 Renilla luciferase sensor, 48 h; neutral wells = 0, positive control = 100; AID 602342; activation (reporter increase), % at 12.5 µM; actives 0.3% (n = 340,000);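 active means mean replicate activation score at least 90 and every replicate individually at or above 90; inconclusive means only one of the two criteria met; inactive means neither criterion met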;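 further: higher luciferase means less miR-122 activity so hits act as miR-122 inhibitors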
PglD inh: inhibitors of Campylobacter jejuni PglD acetyltransferase. purified PglD enzyme, DTNB colorimetric CoA detection. inhibition, % at 12.5 µM. actives 0.098% (n = 360,000); in the data active means inhibition above about 16%, passing the limit was not always enough; inconclusive means no clear call, values can overlap the other calls
Numbers without * were called inactive; [ ] = remark or other dose.

Results for COc1ccccc1CNC(=O)C[C@H]1C[C@H]2c3cc(NC(=O)CN(C)C)ccc3O[C@H]2[C@@H](CO)O1 ?
esBAF inh: 3; miR-122 sensor: 4[16.7 µM]; PglD inh: -2

How did Cc1cccc(-c2noc(C3CCCCC3)n2)c1 do in these assays?
MITF act: 37; esBAF inh: 63*; UUG fidelity: -15; miR-122 sensor: 14; PglD inh: 3

Results for CCS(=O)(=O)N1CCC(c2nc(-c3ccc(C)cc3)no2)CC1 ?
MITF act: 49; esBAF inh: inconclusive; UUG fidelity: 4; miR-122 sensor: 0; PglD inh: 1

Results for Cc1ccc(-c2noc(C3CCCCC3)n2)cc1 ?
MITF act: 167*; miR-122 sensor: -1

What do the screens show for `O=C(Nc1ccc2c(c1)[C@@H]1C[C@H](CC(=O)N3CCOCC3)O[C@H](CO)[C@@H]1O2)NC1CCCC1`?
esBAF inh: -4; UUG fidelity: 6; miR-122 sensor: -2[16.7 µM]; PglD inh: 1

Results for COc1ccc(C(=O)Nc2ccc3c(c2)C(=O)N(C)C[C@@H](OC)[C@H](C)CN(C(C)=O)[C@H](C)CO3)cc1 ?
esBAF inh: -3; UUG fidelity: 25; miR-122 sensor: -3[16.7 µM]; PglD inh: -4

How did CC(C)(C)N1CC(COc2ccccc2)OC1=O (stereo not drawn) do in these assays?
esBAF inh: 62*; Wnt bcat act: 10; UUG fidelity: -12; miR-122 sensor: -2; PglD inh: -5

How did Cc1cccc(N(O)C(=O)Nc2cccc(Cl)c2)c1 do in these assays?
esBAF inh: 51*; Wnt bcat act: 0; UUG fidelity: -18; miR-122 sensor: -2; PglD inh: 2

Results for C[C@H](CO)N1C[C@H](C)[C@H](CN(C)C(=O)Cc2ccccc2)OCCCC[C@H](C)Oc2ccc(NC(=O)c3ccccc3)cc2C1=O ?
esBAF inh: 5; UUG fidelity: 11; miR-122 sensor: -9[16.7 µM]; PglD inh: 3

Results for C[C@H](CO)N1C[C@H](C)[C@H](CN(C)S(=O)(=O)c2ccc(F)cc2)Oc2ncc(C#Cc3ccc(F)cc3)cc2C1=O ?
miR-122 sensor: -6[16.7 µM]

What do the screens show for `C[C@H](CO)N1C[C@H](C)[C@@H](CN(C)S(=O)(=O)c2ccc(F)cc2)OCCCC[C@H](C)Oc2ccc(NC(=O)CCC(F)(F)F)cc2C1=O`?
esBAF inh: -3; UUG fidelity: 9; miR-122 sensor: 0[16.7 µM]; PglD inh: 1

How did C=CCOc1c(Br)cc(/C=N/Nc2ccc(C(=O)O)cc2)cc1OCC do in these assays?
MITF act: 105*; Wnt bcat act: 10

Results for COc1cc(OC)cc(C(=O)Oc2ccc(/C=N/Nc3nc4ccccc4s3)cc2OC)c1 ?
MITF act: 0; Wnt bcat act: 41*; UUG fidelity: -13; miR-122 sensor: -6; PglD inh: 4

What do the screens show for `COc1ccc(/C=N/Nc2ccc(C(=O)O)cc2)cc1Br`?
MITF act: -44; esBAF inh: -49; Wnt bcat act: -6; UUG fidelity: -62; miR-122 sensor: 12; PglD inh: 3

Results for COc1ccc2ccccc2c1/C=N/Nc1cccc(C(=O)O)c1 ?
MITF act: 93*; esBAF inh: 66*; Wnt bcat act: 7; UUG fidelity: 3; miR-122 sensor: -5; PglD inh: -2

What do the screens show for `COc1ccc2ccccc2c1/C=N/Nc1ccc(Cl)c(C(=O)O)c1`?
MITF act: 27; esBAF inh: 6; Wnt bcat act: 2; UUG fidelity: -19; PglD inh: -3

Results for COc1ccc(/C=N/Nc2ccc(C(=O)O)cc2)cc1OC ?
MITF act: 28; esBAF inh: 7; Wnt bcat act: 33*; UUG fidelity: -4; miR-122 sensor: -2; PglD inh: -4

Results for COc1cc(/C=N/Nc2nc3ccccc3s2)ccc1OC(=O)c1ccccc1F ?
MITF act: 17; Wnt bcat act: 29

What do the screens show for `O=C(Nc1ccccc1)N1CCCCN2[C@@H](CO)[C@H](c3ccc(C#Cc4cccnc4)cc3)[C@@H]2C1`?
UUG fidelity: -9; miR-122 sensor: -2[16.7 µM]; PglD inh: 1

How did O=C(N[C@@H]1CC[C@H](CCn2cc(-c3ccccc3)nn2)O[C@@H]1CO)c1cnccn1 do in these assays?
esBAF inh: -5; UUG fidelity: -8; PglD inh: 1

3 compounds out of the list, arranged by heavy-atom count, rising.
Results for Cc1ccc(-c2noc(C3CCCCC3)n2)cc1 ?
MITF act: 167*; miR-122 sensor: -1

Results for COc1cc(/C=N/Nc2nc3ccccc3s2)ccc1OC(=O)c1ccccc1F ?
MITF act: 17; Wnt bcat act: 29

What do the screens show for `C[C@H](CO)N1C[C@H](C)[C@@H](CN(C)S(=O)(=O)c2ccc(F)cc2)OCCCC[C@H](C)Oc2ccc(NC(=O)CCC(F)(F)F)cc2C1=O`?
esBAF inh: -3; UUG fidelity: 9; miR-122 sensor: 0[16.7 µM]; PglD inh: 1

Assay outcomes: PubChem BioAssay, Broad Institute
